In ChEMBL document CHEMBL1137859, “Synthesis of C8-linked pyrrolo[2,1-c][1,4]benzodiazepine-benzimidazole conjugates with remarkable DNA-binding affinity” (2004):

Tested on: Calf thymus DNA
Test: Thermal denaturation of calf thymus DNA at 18 h, incubation at 37 degree C
Type: nucleic-acid assay
Settings: Bos taurus
Summary of the method: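 CT-DNA (100 μM) with ligand 20 μM (PBD/DNA molar ratio 1:5) in aqueous sodium phosphate buffer (10 mM sodium phosphate + 1 mM EDTA, pH 7.00±0.01). Incubated at 37 °C for 0 h or 18 h, then thermal helix→coil melting followed. ΔTm taken relative to DNA alone (Tm mean of 20 separate determinations). ΔTm values ±0.05–0.1 °C.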

COc1cc2c(cc1O)N=C[C@H]1CCCN1C2=O
ΔTm: 0.7 °C
